The source of these data is the SangsterLogP compilation.

As a reminder, the logP is a log measure of how a compound divides between an organic and an aqueous phase. Read a low logP as lower lipophilicity. The molecule `CN(C)CCCN1c2ccccc2Sc2ccc(Cl)cc21` showed a logP of 5.34.
